## Antibody variant affinities, Ab-14 light chain, assay 1

The measurements come from Engelhart et al. 2022 (doi:10.1038/s41597-022-01779-4) through the FLAb antibody collection.

Binding partner: SARS-CoV-2 spike HR2 peptide, sequence PDVDLGDISGINAS.

The variants keep the heavy chain, the linker and the frameworks of Ab-14 (scFv order VH, a 15-residue (Gly4Ser)3 linker, VL).
VH: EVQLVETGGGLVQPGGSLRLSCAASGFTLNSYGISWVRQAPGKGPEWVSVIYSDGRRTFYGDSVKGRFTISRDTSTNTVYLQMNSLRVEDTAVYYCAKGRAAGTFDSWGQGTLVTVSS
VL: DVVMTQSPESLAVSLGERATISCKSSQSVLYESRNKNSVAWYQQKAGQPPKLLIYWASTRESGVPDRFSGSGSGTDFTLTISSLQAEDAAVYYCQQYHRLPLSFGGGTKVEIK

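Phage display of a naive human antibody library on the peptide gave the parent. Variants in AAYL50 differ from the parent at up to three CDR positions; double and triple changes were sampled at random. In AlphaSeq, yeast of one mating type display the scFv and yeast of the other type display the target. Pairs that bind mate more often; barcode pairs of the diploids are counted by sequencing. Scores were corrected for input abundance and mapped to Kd with protein pairs of known affinity run in the same pool. There are three technical replicates.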

Each variant is given by its three light chain CDRs, as the data file delimits them; those of the parent are KSSQSVLYESRNKNSVA, WASTRES, QQYHRLPLS.
All variants listed here change S28 of the VL, counted from its first residue.
Scale: log10 of Kd in nM, estimated from mating counts; low values are strong binders.
A pair that was not seen in that replicate is written "ND"; this usually means weak binding, but a binder can also be missed.

With KSSQVNLYESRNKNSVA | WASERES | QQYHRLPLS the result was 1.04, 1.18, 1.20. Variant GSSQQVLYESRNKNSVA | WASTRVS | QQYHRLPLS gave 0.82, 1.06, 1.03. Variant KSSQAVLYESRNKNSVA | WGSTRES | QQWHRLPLS showed 2.72, ND, 2.15. With KSSQMVLYESRNKWSVA | WASTKES | QQYHRLPLS the result was ND, ND, ND. Variant KSSQVVLYESRNKNSVA | WHSTRES | NQYHRLPLS showed ND, ND, ND.

With KSGQCVYYESRNKNSVA | WASTRES | QQYHRLPLS the result was 0.54, 0.89, 0.76. Variant KSSQQVLYESRNKNSVA | RASTHES | QQYHRLPLS showed 2.58, 2.61, 2.50. Variant KSSQDVLYESRNKNSVA | WFSTRES | QQYNRLPLS showed ND, ND, 5.53. With KSSQKVLYESRHKNSVA | WASTRES | QQYHRLPLS the result was 1.69, 1.76, 1.99. Variant KSSQEVLYESRNKNSVF | WASTRES | QQYHRIPLS showed ND, ND, ND.

Variant KNSQVVLYESRNKNSVA | WASTRES | QNYHRLPLS gave 4.81, 3.84, ND. Variant KSSQRVLYESRNKNSVA | WASTRES | QQMHRLPMS showed 0.92, 1.41, 1.15. Variant KSSQLVLYESRNKNSVA | WASTRES | QQYHRLPLS gave 1.22, 1.27, 1.36. With KSSQQVLYESRNKNSRA | WASNRES | QQYHRLPLS the result was 3.52, ND, ND. Variant KISQLVLYESRNKNSVY | WASTRES | QQYHRLPLS gave ND, ND, ND.

For KSSQHVLYESRNKNSVA | WAKTRES | QQYDRLPLS, the assay gave 2.35, 2.83, 2.52. For NSSQYVLYESRNKNSVP | WASTRES | QQYHRLPLS, the assay gave ND, ND, ND. With KSSLLVLYESRNKNSVA | WASTRES | QQYHRLPLS the result was ND, ND, ND. For KSSQDVLYESRNKNSVA | WAATRES | SQYHRLPLS, the assay gave 3.35, 2.64, 2.77. For KSSQHVLYESRNKNSVA | YASTRES | QQYHRLPLS, the assay gave 0.28, 0.64, 0.31.

Variant KSSQDVLYESRNKNSVA | WASTRES | QQYHRLFPS showed ND, ND, ND. For KSSQMVLYESRNKNSVA | MASTRES | QQYHRLPLS, the assay gave ND, ND, ND. For KSSQHVLVESRLKNSVA | WASTRES | QQYHRLPLS, the assay gave 3.11, 3.05, 3.08. Variant TSSQIVLYESRNKNSVA | WASTRES | QQYHRLPTS showed ND, ND, ND. With KSSQMVLYESRNKNSYA | WASTRES | QQYHRKPLS the result was ND, 4.22, ND.

Variant KSSQPVLYESRNKNSVA | WASTRES | QQYHRLPTS showed 0.64, 1.05, 0.83. With KSSQLVLYESRNKNSGW | WASTRES | QQYHRLPLS the result was 1.90, 1.66, 2.13. With KSSQKVCYESRNKNSVM | WASTRES | QQYHRLPLS the result was ND, ND, 4.93. Variant KSSQHVDYESRNKNSVA | WASTRES | QQLHRLPLS showed 0.65, 1.10, 0.75. For KSNQGVLYESRNKNSVA | WSSTRES | QQYHRLPLS, the assay gave 1.42, 1.53, 1.56.

Variant KSSQLVLYESRNKNSVA | WASTRES | QQYHRKPLS gave ND, ND, ND. Variant KSSQTVLYESRNKNSVA | WASTRES | QQYHRLPLS gave 1.26, 1.54, 1.47. With KSSQRVLYESRNKNSVA | WASTREK | QQCHRLPLS the result was ND, ND, ND. Variant KSSQPVLYESRNKNSVA | WASTRES | QQYHHLPLS gave 0.45, 0.74, 0.77. Variant KSSQPVTYESRNKNSVA | WGSTRES | QQYHRLPLS gave -0.16, 0.11, -0.11.

For KSSQHVLCESRNKNSVA | WASTRES | QQYHRLPLS, the assay gave ND, ND, ND. Variant KSSQPVLYESRNKNSVA | TNSTRES | QQYHRLPLS gave ND, ND, ND.

Top 5 of the variants detected in all replicates, tightest first:

| CDR-L1 | CDR-L2 | CDR-L3 | log10 Kd (nM) by replicate |
|---|---|---|---|
| KSSQPVTYESRNKNSVA | WGSTRES | QQYHRLPLS | -0.16, 0.11, -0.11 |
| KSSQHVLYESRNKNSVA | YASTRES | QQYHRLPLS | 0.28, 0.64, 0.31 |
| KSSQPVLYESRNKNSVA | WASTRES | QQYHHLPLS | 0.45, 0.74, 0.77 |
| KSGQCVYYESRNKNSVA | WASTRES | QQYHRLPLS | 0.54, 0.89, 0.76 |
| KSSQHVDYESRNKNSVA | WASTRES | QQLHRLPLS | 0.65, 1.10, 0.75 |

Background: pairings of library AAYL50 with three empty control strains gave a value in 18% of cases (median 4.19, 5th percentile 2.99). Values in that range, when seen in few replicates, are hard to tell from nonspecific mating.